{"sequences": {"note": "Amino acid sequences for entries named in this document (tags omitted). A change or cut given only in a name is not applied to a line headed by its entry.", "UniProt G1T1L9": "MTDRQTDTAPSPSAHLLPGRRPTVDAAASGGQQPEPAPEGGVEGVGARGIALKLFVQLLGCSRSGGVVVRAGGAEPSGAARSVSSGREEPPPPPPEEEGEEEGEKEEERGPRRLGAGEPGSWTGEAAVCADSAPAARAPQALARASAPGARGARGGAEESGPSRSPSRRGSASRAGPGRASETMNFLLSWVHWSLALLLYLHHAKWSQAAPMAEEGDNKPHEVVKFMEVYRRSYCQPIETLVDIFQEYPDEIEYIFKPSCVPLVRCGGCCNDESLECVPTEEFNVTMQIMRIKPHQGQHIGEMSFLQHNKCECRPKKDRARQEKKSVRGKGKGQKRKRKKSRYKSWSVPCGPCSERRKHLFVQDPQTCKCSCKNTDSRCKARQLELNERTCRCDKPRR"}, "source": "patent US20230287109A1", "target": "rabbit VEGF (rabbit) (UniProt G1T1L9)", "assay": "SPR, summary table, column Rabbit VEGF, Kd [M]", "data": [{"substance": "faricimab (bispecific antibody)", "values": [{"measurement": "Kd", "value": 5.1, "unit": "nM"}]}]}
